Measured values reported in the supplement of paper PMC11403291.

Chains of the proteins cited; added tags and fusions are not shown. Lines headed by an entry give the natural chain unless they say otherwise; changes in a name come on top.
UniProt O43293: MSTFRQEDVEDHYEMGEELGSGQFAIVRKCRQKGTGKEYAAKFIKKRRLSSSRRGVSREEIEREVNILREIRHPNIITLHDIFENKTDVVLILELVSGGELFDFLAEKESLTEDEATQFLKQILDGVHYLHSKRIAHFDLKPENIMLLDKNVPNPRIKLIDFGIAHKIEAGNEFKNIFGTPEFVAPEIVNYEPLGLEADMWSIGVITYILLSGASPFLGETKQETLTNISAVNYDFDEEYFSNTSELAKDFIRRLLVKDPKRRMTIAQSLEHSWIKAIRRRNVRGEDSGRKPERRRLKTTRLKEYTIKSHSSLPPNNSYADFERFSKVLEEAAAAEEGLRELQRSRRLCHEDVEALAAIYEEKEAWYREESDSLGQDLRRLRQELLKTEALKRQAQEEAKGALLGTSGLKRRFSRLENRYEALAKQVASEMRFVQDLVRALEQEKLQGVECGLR
UniProt P50750, whole entry: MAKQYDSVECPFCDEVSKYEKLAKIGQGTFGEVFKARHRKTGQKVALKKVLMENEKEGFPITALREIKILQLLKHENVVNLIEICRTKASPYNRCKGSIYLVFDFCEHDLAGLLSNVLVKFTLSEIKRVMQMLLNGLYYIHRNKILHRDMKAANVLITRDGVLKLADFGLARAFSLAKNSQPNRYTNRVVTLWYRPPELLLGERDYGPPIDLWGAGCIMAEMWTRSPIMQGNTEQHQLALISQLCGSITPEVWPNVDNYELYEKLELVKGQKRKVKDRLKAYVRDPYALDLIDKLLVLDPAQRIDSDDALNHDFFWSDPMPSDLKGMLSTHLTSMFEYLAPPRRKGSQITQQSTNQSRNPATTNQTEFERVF
UniProt O75582, whole entry, looked up: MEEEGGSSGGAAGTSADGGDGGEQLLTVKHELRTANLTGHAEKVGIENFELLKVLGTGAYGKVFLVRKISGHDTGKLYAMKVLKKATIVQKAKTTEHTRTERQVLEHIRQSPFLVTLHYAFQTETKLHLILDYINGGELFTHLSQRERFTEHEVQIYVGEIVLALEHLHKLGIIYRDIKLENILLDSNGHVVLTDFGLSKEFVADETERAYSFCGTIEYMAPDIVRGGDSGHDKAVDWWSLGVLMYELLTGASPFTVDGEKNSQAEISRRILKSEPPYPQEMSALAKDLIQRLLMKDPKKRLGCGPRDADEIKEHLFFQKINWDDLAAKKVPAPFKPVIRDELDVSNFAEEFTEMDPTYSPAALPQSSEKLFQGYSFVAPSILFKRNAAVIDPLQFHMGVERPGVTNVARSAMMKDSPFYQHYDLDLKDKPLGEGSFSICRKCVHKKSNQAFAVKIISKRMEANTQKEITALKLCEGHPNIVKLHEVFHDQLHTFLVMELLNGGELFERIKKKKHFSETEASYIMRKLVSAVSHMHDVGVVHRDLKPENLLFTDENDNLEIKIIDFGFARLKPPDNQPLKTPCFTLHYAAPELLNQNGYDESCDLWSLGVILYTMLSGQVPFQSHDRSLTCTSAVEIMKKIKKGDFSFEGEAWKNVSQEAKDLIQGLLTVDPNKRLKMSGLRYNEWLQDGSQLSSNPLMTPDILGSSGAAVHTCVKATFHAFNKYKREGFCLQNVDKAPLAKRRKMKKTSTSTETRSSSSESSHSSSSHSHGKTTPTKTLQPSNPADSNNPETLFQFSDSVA
UniProt Q13557, whole entry: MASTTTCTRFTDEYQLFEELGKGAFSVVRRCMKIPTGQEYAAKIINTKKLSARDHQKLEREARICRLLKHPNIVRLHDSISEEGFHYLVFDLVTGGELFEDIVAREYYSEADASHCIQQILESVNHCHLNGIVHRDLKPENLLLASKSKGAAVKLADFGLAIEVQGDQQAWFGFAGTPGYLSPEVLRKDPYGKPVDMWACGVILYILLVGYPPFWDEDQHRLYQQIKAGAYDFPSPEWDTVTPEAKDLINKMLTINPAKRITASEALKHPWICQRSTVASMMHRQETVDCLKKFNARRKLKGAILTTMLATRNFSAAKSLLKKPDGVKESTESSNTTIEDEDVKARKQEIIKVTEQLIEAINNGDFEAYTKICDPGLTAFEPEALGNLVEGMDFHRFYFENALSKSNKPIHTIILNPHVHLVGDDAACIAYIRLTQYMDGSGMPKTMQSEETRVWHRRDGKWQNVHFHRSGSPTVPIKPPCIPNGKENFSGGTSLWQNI
UniProt P53671: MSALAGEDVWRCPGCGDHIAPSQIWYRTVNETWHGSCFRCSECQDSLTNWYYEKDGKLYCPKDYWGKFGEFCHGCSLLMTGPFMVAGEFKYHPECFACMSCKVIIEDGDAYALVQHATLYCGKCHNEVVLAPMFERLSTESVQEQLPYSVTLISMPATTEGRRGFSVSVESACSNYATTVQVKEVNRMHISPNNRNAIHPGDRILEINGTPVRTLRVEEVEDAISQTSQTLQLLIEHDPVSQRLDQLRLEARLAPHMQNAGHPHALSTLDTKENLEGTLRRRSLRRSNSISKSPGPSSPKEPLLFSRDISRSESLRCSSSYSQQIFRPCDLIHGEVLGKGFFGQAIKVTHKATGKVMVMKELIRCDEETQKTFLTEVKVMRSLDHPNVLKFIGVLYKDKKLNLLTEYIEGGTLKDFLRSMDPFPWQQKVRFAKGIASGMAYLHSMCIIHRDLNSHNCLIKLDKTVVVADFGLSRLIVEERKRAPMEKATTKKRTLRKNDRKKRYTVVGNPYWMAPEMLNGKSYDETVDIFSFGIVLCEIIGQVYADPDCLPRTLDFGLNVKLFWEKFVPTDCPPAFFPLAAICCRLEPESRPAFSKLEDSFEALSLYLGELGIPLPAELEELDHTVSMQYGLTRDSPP
UniProt Q9Y5S2: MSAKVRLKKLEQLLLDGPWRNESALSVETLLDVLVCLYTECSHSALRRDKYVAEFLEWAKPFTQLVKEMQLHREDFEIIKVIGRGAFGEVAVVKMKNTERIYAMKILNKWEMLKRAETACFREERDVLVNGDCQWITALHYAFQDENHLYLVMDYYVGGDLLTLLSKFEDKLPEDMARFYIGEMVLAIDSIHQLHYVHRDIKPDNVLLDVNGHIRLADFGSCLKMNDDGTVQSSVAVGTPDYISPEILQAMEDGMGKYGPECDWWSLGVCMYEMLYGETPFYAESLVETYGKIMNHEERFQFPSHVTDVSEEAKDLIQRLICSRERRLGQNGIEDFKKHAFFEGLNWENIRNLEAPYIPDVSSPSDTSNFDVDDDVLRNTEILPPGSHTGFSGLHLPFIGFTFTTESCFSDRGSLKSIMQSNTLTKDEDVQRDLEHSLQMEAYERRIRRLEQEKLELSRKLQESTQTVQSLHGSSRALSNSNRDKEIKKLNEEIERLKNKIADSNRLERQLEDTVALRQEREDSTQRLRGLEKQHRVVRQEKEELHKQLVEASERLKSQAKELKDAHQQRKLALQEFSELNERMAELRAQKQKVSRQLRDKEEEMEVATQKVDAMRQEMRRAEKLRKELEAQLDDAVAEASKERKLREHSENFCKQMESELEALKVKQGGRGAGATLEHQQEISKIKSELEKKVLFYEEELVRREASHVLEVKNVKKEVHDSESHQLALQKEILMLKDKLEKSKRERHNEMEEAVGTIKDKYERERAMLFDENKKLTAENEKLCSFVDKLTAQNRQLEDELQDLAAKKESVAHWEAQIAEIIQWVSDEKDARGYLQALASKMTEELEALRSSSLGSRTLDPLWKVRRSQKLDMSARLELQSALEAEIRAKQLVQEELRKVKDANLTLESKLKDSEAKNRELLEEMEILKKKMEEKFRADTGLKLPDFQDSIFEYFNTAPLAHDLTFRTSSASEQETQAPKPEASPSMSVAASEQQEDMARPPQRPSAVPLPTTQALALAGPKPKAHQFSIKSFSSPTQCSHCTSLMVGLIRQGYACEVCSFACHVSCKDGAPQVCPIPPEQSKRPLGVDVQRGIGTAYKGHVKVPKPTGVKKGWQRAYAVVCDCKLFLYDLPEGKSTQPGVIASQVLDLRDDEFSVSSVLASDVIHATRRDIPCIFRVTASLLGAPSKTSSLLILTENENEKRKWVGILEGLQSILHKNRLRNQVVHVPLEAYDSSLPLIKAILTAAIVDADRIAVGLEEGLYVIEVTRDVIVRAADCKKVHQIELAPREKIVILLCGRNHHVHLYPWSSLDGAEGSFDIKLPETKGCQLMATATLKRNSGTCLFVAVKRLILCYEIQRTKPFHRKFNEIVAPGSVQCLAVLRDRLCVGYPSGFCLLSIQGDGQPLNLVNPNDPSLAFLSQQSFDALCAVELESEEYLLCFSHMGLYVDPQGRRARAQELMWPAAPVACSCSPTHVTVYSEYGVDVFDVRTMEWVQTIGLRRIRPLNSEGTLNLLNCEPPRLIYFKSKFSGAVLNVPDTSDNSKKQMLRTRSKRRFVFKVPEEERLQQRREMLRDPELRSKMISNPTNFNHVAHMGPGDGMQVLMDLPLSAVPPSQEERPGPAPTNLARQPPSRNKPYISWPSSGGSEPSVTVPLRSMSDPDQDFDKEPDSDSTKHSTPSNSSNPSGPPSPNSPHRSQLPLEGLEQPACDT
UniProt P54646: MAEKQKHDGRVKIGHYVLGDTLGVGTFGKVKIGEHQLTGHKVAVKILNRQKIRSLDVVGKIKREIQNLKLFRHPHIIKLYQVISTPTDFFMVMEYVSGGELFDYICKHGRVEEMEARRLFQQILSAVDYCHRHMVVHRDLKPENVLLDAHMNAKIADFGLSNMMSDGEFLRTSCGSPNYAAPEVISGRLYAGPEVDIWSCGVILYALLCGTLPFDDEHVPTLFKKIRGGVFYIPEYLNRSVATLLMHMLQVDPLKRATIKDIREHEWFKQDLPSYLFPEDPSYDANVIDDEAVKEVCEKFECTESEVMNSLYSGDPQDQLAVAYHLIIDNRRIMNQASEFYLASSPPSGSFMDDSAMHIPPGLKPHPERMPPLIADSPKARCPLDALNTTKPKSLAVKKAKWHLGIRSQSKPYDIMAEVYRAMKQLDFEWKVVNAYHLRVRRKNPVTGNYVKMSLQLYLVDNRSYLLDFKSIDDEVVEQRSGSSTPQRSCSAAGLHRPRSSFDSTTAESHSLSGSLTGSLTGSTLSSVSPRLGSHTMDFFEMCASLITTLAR
UniProt Q9H422: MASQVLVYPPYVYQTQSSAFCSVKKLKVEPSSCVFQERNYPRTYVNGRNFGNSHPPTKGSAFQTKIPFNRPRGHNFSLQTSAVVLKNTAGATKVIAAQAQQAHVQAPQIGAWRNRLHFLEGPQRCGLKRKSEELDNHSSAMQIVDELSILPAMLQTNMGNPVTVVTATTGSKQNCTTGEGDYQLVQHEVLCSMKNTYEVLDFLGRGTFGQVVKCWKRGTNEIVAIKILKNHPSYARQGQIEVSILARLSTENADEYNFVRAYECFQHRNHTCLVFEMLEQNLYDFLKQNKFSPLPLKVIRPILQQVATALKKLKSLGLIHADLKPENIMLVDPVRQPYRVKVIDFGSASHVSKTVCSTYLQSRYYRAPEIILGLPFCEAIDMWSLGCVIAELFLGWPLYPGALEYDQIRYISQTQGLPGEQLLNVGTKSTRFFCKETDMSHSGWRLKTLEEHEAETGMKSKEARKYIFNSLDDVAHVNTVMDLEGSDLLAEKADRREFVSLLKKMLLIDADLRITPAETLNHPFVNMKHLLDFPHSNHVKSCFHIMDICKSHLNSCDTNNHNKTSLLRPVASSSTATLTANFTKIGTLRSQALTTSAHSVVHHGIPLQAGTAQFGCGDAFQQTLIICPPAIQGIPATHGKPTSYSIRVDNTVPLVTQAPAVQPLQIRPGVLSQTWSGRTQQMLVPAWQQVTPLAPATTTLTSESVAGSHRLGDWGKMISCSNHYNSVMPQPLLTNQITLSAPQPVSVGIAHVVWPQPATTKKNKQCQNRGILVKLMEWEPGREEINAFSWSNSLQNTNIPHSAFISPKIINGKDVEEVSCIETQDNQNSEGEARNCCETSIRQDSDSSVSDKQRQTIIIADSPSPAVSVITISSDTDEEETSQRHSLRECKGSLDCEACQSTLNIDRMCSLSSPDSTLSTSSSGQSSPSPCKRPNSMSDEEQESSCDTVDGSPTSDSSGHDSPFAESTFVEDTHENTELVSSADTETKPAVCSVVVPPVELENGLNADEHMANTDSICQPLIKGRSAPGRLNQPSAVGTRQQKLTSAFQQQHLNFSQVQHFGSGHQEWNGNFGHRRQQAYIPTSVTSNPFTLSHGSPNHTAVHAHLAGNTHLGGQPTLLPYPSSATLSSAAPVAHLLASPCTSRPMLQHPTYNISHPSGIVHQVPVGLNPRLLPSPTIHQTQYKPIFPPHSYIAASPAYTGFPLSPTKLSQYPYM

Tests used:
RPS6KA3 = RPS6KA3 (UniProt P51812); assay: apparent dissociation constant pKd app (kinobead competition) (-log10(M)); higher = stronger binding
CDC2L5 = CDC2L5 (UniProt Q14004); assay: as above
DAPK3 = DAPK3 (UniProt O43293); assay: as above
TEC = molecular target: T1, TEC (UniProt P42680); assay: as above
T1 sequence (whole entry): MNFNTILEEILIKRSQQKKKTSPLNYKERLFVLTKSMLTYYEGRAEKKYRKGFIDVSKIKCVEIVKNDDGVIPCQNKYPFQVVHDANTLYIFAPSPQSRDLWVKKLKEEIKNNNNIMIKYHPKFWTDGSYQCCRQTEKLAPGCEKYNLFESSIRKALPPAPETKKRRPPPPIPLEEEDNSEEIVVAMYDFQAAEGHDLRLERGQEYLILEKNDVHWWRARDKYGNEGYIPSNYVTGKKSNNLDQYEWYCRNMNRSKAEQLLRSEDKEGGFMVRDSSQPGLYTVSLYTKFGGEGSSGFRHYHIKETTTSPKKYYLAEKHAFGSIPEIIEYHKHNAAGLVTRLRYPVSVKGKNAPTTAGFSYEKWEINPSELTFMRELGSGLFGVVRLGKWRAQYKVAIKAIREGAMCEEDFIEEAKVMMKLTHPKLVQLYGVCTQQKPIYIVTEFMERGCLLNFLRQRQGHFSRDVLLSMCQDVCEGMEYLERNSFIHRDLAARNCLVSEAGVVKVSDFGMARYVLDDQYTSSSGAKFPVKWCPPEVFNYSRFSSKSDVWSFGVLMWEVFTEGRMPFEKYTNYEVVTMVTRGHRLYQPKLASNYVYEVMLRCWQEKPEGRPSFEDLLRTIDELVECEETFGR

CDK9 = CDK9 (UniProt P50750); assay: as above
RPS6KA5 = RPS6KA5 (UniProt O75582); assay: as above
MAP2K3 = molecular target: T2, MAP2K3 (UniProt P46734); assay: as above
T2 sequence (whole entry): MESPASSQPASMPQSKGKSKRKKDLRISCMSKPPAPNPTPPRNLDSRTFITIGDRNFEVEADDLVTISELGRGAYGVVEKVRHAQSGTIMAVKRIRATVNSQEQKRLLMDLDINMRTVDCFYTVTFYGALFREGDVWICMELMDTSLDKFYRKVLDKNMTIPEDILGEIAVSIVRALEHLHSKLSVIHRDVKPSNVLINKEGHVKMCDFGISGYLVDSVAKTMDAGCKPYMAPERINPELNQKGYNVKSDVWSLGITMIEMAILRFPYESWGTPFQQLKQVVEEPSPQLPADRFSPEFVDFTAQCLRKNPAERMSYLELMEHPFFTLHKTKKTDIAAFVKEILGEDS

CAMK2D = CAMK2D (UniProt Q13557); assay: as above
PKMYT1 = molecular target: T3, PKMYT1 (UniProt Q99640); assay: as above
T3 sequence (whole entry): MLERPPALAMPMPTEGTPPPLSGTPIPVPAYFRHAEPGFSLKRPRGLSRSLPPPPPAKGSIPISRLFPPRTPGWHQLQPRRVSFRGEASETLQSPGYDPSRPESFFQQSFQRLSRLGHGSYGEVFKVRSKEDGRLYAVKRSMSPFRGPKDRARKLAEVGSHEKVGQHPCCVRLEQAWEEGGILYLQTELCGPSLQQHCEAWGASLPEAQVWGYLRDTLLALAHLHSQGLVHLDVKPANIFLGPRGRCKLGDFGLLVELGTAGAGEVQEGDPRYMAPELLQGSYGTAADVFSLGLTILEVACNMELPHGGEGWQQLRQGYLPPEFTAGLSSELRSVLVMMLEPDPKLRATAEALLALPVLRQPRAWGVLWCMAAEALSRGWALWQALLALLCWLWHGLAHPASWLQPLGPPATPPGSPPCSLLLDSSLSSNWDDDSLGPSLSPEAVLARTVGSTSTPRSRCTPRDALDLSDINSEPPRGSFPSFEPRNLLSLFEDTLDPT

STK4 = molecular target: T4, STK4 (UniProt Q13043); assay: as above
T4 sequence (whole entry): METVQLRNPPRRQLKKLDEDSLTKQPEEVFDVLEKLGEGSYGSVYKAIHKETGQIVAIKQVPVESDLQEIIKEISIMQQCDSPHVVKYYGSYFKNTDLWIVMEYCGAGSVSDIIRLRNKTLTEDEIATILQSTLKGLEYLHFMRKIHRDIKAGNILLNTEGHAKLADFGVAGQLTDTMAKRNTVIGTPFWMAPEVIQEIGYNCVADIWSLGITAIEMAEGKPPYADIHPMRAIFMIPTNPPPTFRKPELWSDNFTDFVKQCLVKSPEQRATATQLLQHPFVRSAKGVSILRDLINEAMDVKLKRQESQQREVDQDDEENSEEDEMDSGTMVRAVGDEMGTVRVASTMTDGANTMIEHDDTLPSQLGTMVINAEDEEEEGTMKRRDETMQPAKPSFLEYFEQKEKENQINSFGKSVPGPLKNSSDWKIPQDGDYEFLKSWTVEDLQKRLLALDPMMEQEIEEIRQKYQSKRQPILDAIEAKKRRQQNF

LIMK2 = LIMK2 (UniProt P53671); assay: as above
CDC42BPB = CDC42BPB (UniProt Q9Y5S2); assay: as above
PIP5K3 = PIP5K3 (UniProt Q9Y2I7); assay: as above
PRKAA2 = PRKAA2 (UniProt P54646); assay: as above
HIPK3 = HIPK3 (UniProt Q9H422); assay: IC50 of competition for binding to PARP-centric bead matrix; conditions: affinity matrix: PARP family-centric bead mix; lysate: MDA-MB-231

Row | apparent dissociation constant pKd app (-log10) (RPS6KA3) | apparent dissociation constant pKd app (-log10) (CDC2L5) | apparent dissociation constant pKd app (-log10) (DAPK3) | apparent dissociation constant pKd app (-log10) (TEC) | apparent dissociation constant pKd app (-log10) (CDK9) | apparent dissociation constant pKd app (-log10) (RPS6KA5) | apparent dissociation constant pKd app (-log10) (MAP2K3) | apparent dissociation constant pKd app (-log10) (CAMK2D) | apparent dissociation constant pKd app (-log10) (PKMYT1) | apparent dissociation constant pKd app (-log10) (STK4) | apparent dissociation constant pKd app (-log10) (LIMK2) | apparent dissociation constant pKd app (-log10) (CDC42BPB) | apparent dissociation constant pKd app (-log10) (PIP5K3) | apparent dissociation constant pKd app (-log10) (PRKAA2) | IC50 (HIPK3) [µM] | Compound
1 | < 4.5 | < 4.5 | < 4.5 | < 4.8 | < 4.7 | < 4.5 | < 4.5 | < 5 | < 4.5 | < 4.5 | < 4.6 | < 4.5 | < 4.6 | < 4.7 | > 30 | O=C(c1cc(Cc2n[nH]c(=O)c3ccccc23)ccc1F)N1CCN(C(=O)C2CC2)CC1 [Olaparib]
2 | < 4.5 | < 4.5 | < 4.5 | < 4.8 | < 4.7 | < 4.5 | < 4.5 | < 5 | < 4.5 | < 4.5 | < 4.6 | < 4.5 | < 4.6 | < 4.7 | 0.17 | NC(=O)c1cccc2cn(-c3ccc([C@@H]4CCCNC4)cc3)nc12 [Niraparib]
3 | < 4.5 | < 4.5 | < 4.5 | < 4.8 | < 4.7 | < 4.5 | < 4.5 | < 5 | < 4.5 | < 4.5 | < 4.6 | < 4.5 | < 4.6 | < 4.7 | > 30 | Cn1ncnc1[C@H]1c2n[nH]c(=O)c3cc(F)cc(c23)N[C@@H]1c1ccc(F)cc1 [Talazoparib]
